## Ab-95 light chain CDR variants: yeast mating affinities

The target is the same throughout: PDVDLGDISGINAS, from the HR2 region of SARS-CoV-2 spike.

The variants keep the heavy chain, the linker and the frameworks of Ab-95 (scFv order VH, three GGGGS repeats, VL).
VH: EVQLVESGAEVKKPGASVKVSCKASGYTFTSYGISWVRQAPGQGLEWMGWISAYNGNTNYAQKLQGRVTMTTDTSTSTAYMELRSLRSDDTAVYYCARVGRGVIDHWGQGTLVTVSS
VL: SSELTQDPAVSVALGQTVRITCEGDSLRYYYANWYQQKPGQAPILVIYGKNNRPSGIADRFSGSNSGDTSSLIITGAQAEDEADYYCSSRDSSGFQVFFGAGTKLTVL

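The starting antibody came from a phage panning campaign against this peptide. AAYL52 was designed without a model: most single CDR substitutions and a random sample of double and triple ones. The assay is AlphaSeq: two haploid yeast populations carry antibody and antigen on their surface. Pairs that bind mate more often; barcode pairs of the diploids are counted by sequencing. Scores were corrected for input abundance and mapped to Kd with protein pairs of known affinity run in the same pool. The assay was run in three technical replicates.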

Positions count from residue 1 of the parent VL; R28N puts N in place of R. Every variant below is changed at R28 of the VL (sequential numbering). Values are log10 of the apparent Kd in nM; lower means stronger binding. Averages over replicates are reported, and they cover detected replicates only. Where no diploid with the target was found in that replicate, the entry reads "ND": below detection, most likely a poor binder, though not proof of it. Order: sorted from the lowest average up, undetected variants last. Background: pairings of library AAYL52 with three empty control strains gave a value in 28% of cases (median 3.91, 5th percentile 2.90). Values in that range, when seen in few replicates, are hard to tell from nonspecific mating. For each scFv, signals with the empty controls are counted beside the result.

For R28N Y30A, the assay gave 0.80, 0.79, 0.27 (mean 0.62; controls 3 of 9). The variant R28L Y29K Y30S showed 0.83, 0.97, 0.21 (mean 0.67; controls 2 of 9). With R28W Y30S Q96F the result was 1.93, 1.73, 1.55 (mean 1.74; controls 1 of 9). For R28E S89I F95R, the assay gave 1.88, 2.31, 1.50 (mean 1.90; controls 4 of 9). The variant R28K Y30W showed 2.54, 2.02, 1.89 (mean 2.15; controls 2 of 9). The variant R28S N51D S92L gave 2.45, 2.19, 2.32 (mean 2.32; controls 3 of 9). With R28K S89D D91M the result was 2.71, 2.11, 2.18 (mean 2.33; controls 4 of 9).

The variant R28Y G94K gave 2.31, 2.33, 2.63 (mean 2.42; controls 4 of 9). For R28V, the assay gave 2.72, 2.68, 2.19 (mean 2.53; controls 2 of 9). The variant R28M S93V F98K gave 2.89, 2.55, 2.32 (mean 2.59; controls 3 of 9). The variant R28W S93E showed 2.71, 2.89, 2.41 (mean 2.67; controls 3 of 9). The variant R28C S88R F98K showed 2.48, 2.78, 3.17 (mean 2.81; controls 0 of 9). The variant R28P Y30S Q96P gave 3.17, 2.68, 2.66 (mean 2.84; controls 2 of 9). The variant E23C R28H Y30W gave 2.85, 2.84, ND (mean 2.85; controls 1 of 9).

The variant R28Q S55W F98C gave 3.25, 2.51, 3.17 (mean 2.98; controls 3 of 9). The variant R28M Y31E G49K gave 3.23, 3.16, 2.65 (mean 3.02; controls 3 of 9). The variant G24R R28I gave 3.04, 3.74, 2.28 (mean 3.02; controls 3 of 9). The variant D25T R28Y F98W gave 3.50, 2.97, 2.62 (mean 3.03; controls 0 of 9). For R28F Y29I, the assay gave 3.15, 2.96, 3.02 (mean 3.04; controls 5 of 9). With R28S Y29K N33I the result was 3.37, 2.78, ND (mean 3.07; controls 3 of 9). With R28L N52D S93A the result was 3.08, 3.49, 3.10 (mean 3.22; controls 0 of 9).

The variant G24H R28T N52I gave 3.49, 3.56, 2.78 (mean 3.27; controls 2 of 9). With R28D Y30K P54L the result was 3.58, 2.82, 3.66 (mean 3.35; controls 6 of 9). The variant R28V N33C P54N showed 3.72, ND, 3.13 (mean 3.43; controls 5 of 9). With R28E N33W the result was 3.92, 2.93, ND (mean 3.43; controls 3 of 9). The variant R28Y S55Y R90G showed 3.32, 3.61, ND (mean 3.47; controls 4 of 9). The variant R28Q S88Y R90T showed 4.47, 3.58, 2.72 (mean 3.59; controls 1 of 9). The variant S26P R28T K50A showed 3.06, 3.63, 4.42 (mean 3.70; controls 4 of 9).

The variant R28Y S88G Q96W gave ND, 3.76, ND (controls 3 of 9). For D25K R28N N33I, the assay gave 3.77, ND, ND (controls 1 of 9). The variant R28C P54N F95M gave 3.15, 4.17, 4.06 (mean 3.80; controls 8 of 9). The variant R28A S93Q V97F showed 3.67, 3.96, ND (mean 3.82; controls 4 of 9). For R28E A32H R90M, the assay gave 3.68, 4.03, ND (mean 3.86; controls 2 of 9). The variant E23P L27M R28A showed ND, 4.16, 3.58 (mean 3.87; controls 2 of 9). For S26Y R28M P54G, the assay gave 3.71, 4.34, ND (mean 4.03; controls 1 of 9).

For R28A V97N, the assay gave 3.54, 4.58, ND (mean 4.06; controls 3 of 9). The variant G24A R28F R90A gave 4.09, ND, ND (controls 2 of 9). The variant R28W G49Y S92N showed 4.28, ND, ND (controls 0 of 9). For D25I R28V G94R, the assay gave 4.44, ND, ND (controls 2 of 9). For R28E G49Q S89D, the assay gave 4.62, ND, ND (controls 2 of 9). For R28P N52H S89K, the assay gave ND, 4.66, ND (controls 1 of 9). The variant G24A R28I D91A showed 5.45, 5.02, ND (mean 5.24; controls 4 of 9).

The variant G24W R28N S92H gave ND, ND, ND (controls 3 of 9). The variant L27Y R28K S88F gave ND, ND, ND (controls 3 of 9). The variant R28K S89D V97E showed ND, ND, ND (controls 0 of 9). For S26T R28A S89D, the assay gave ND, ND, ND (controls 0 of 9). With R28F R53A Q96R the result was ND, ND, ND (controls 3 of 9). With D25K R28G F95H the result was ND, ND, ND (controls 0 of 9). For R28S Y31K R90Q, the assay gave ND, ND, ND (controls 0 of 9).

The variant R28L G49L S88T showed ND, ND, ND (controls 0 of 9).

A selection of 8 entries from above:

With R28F R53A Q96R the result was ND, ND, ND (controls 3 of 9).
With R28A S93Q V97F the result was 3.67, 3.96, ND (mean 3.82; controls 4 of 9).
With D25K R28N N33I the result was 3.77, ND, ND (controls 1 of 9).
With R28L G49L S88T the result was ND, ND, ND (controls 0 of 9).
With G24W R28N S92H the result was ND, ND, ND (controls 3 of 9).
With R28K S89D D91M the result was 2.71, 2.11, 2.18 (mean 2.33; controls 4 of 9).
With L27Y R28K S88F the result was ND, ND, ND (controls 3 of 9).
With R28K S89D V97E the result was ND, ND, ND (controls 0 of 9).

The measurements come from Engelhart et al. 2022 (doi:10.1038/s41597-022-01779-4) through the FLAb antibody collection.